The target of one test is Serine protease 1 (Homo sapiens, UniProt P07477). The test is described as follows: In vitro inhibitory activity against trypsin was determined.
In test [1] the target is Vitamin K-dependent protein C (Homo sapiens, UniProt P04070). The experiment in a line: In vitro inhibitory activity against activated protein C was determined.
The target in another test is Coagulation factor X (Homo sapiens, UniProt P00742). The experiment in a line: In vitro inhibitory activity against Coagulation factor X was determined.

Chains of the proteins cited; added tags and fusions are not shown. Residues count along the entry.
UniProt P07477, whole entry: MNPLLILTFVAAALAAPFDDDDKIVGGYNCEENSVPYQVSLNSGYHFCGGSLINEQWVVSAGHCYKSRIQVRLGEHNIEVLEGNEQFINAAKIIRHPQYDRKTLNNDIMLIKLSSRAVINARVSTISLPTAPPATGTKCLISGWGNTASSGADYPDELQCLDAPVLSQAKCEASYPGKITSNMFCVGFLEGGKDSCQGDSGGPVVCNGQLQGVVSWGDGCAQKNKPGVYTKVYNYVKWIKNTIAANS
UniProt P04070, 43-197 limits assumed: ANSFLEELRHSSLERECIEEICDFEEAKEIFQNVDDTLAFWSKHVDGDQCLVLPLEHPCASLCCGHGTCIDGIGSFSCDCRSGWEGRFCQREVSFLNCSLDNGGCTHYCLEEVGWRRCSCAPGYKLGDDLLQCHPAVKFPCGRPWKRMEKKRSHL
UniProt P04070, 212-461 limits assumed: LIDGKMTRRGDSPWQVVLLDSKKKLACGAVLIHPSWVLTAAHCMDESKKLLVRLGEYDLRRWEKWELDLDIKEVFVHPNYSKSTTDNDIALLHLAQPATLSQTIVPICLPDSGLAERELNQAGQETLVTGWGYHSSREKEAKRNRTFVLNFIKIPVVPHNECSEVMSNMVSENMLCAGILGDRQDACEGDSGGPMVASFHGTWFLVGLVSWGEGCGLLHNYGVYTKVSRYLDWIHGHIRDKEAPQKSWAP
UniProt P00742, 41-179 limits assumed: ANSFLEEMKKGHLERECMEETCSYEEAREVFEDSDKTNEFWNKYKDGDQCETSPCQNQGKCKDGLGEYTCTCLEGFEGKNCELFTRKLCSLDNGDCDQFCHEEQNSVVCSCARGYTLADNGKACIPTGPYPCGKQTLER
UniProt P00742, 235-488 limits assumed: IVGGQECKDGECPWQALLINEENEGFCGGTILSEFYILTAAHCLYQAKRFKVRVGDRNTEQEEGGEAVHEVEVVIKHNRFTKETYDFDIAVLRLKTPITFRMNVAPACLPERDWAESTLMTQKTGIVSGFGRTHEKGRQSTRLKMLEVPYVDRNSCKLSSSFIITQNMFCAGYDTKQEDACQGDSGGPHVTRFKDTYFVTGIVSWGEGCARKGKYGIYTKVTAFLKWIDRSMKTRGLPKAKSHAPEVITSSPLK

For the molecule `CN1CCN=C1c1ccc(C(=O)N2CCN(S(=O)(=O)c3cc4cc(Cl)ccc4[nH]3)CC2)cc1`, the IC50 (on Serine protease 1; in test [1]) was more than 10 µM each time. At Coagulation factor X, `NS(=O)(=O)c1ccccc1-c1ccc(C(=O)N2CCN(S(=O)(=O)c3ccc4cc(Br)ccc4c3)CC2)cc1` showed a concentration for half-maximal inhibition (IC50) of 0.24 µM.

Values taken from ChEMBL document CHEMBL1137970, “N,N-Dialkylated 4-(4-arylsulfonylpiperazine-1-carbonyl)-benzamidines and 4-((4-arylsulfonyl)-2-oxo-piperazin-1-ylmethyl)-benzamidines as potent factor Xa inhibitors” (Bioorg Med Chem Lett, 2004).
